Sequences of proteins named here, by UniProt entry; tags and fusion partners are left off. A change or cut given only in a name is not applied to a line headed by its entry.
UniProt P21757: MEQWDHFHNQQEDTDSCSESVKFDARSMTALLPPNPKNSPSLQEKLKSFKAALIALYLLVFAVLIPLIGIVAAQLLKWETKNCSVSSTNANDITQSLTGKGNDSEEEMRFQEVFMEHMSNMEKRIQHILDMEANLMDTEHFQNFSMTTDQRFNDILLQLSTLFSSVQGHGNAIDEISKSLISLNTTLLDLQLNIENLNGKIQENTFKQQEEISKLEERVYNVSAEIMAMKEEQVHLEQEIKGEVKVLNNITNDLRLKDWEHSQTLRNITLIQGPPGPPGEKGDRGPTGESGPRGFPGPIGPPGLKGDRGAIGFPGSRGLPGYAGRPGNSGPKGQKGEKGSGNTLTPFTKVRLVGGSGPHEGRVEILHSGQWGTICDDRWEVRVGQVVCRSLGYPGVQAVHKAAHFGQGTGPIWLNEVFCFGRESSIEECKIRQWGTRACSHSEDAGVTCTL

According to patent US20190367631A1:

What was measured:
[1] = target: endogenously expressed human MSR1 on PMA-treated THP-1 cells (human) (UniProt P21757); assay: cell-based or functional assay
[2] = target: endogenously expressed human MSR1 on PMA-treated THP-1 cells (human) (UniProt P21757); assay: ECL cell binding, PMA-treated THP-1 cells, 11 nM
[3] = target: endogenously expressed human MSR1 on PMA-treated THP-1 cells (human) (UniProt P21757); assay: confocal imaging, differentiated THP-1 cells, Alexa 488 secondary

B1: H1H27751P-N297Q (antibody, human IgG1, V domains shown)
VH: EVQLVESGGGLVQPGGSLRLSCAASGFTFSNYAMHWVRQAPGKGLEYVSAISSNGGSTYYADSVKGRITISRDNSKNTLYLQMGSLRAEDMAVYYCARGRPYYYYFGMDVWGQGTTVTVSS
VL: DIVMTQTPVSSPVTLGQPASISCRSSQSLVHSDGNTYLSWFQQRPGQPPRLLIYKISNRFSGVPDRFSGSGAGTDFTLKISRVEAEDVGVYYCMQATQFPLNFGGGTKVEIKR
A % Internalization [1] of 84.9%, a Total Internalized RFU [1] of 6.79e+06 RFU and a ratio of binding signal (RLU) to isotype control [2] of 54 fold were found for B1 in this work. The Total Binding at 4° C. (RFU) [3] was 5.83e+06 RFU and the Total Binding at 37° C. (RFU) [3] was 8e+06 RFU.
